Experimental data from patent US20240139351A1, “TARGETING SYSTEM WITH IMPROVED UPTAKE” (CORETAG IP B.V., priority 2021, published 2024).

Tested on: NCI-H69 tumor
Experiment: Biodistribution of 111In-radiolabeled compounds in mice bearing NCI-H69 tumors
From the text: CORETAG has evaluated the radiolabeling, in vitro binding, pharmacology in tumor animal model, and PET or SPECT imaging with an overall expertise in targeted radiotherapy and companion imaging diagnostic. The aim of this part is to evaluate the biodistribution of the 4 compounds below and compare it to the biodistribution of DOT-AGA-PEG4-CW800 (prior art).
The injected activity was about 9.0 MBq.
The NCI-H69 cell line used is a human small cell lung cancer carcinoma that was
Tumor cells were grown at 37° C. in a humidified atmosphere (5% CO2, 95% air). The culture medium will be RPMI1640 medium containing 10% fetal calf serum. NCI-H69 tumor cells are growing as a cell suspension. For experimental use, tumor cells were harvested by centrifugation. Cells were counted and viability assessed using a 0.25% try-pan blue exclusion assay.
Thirty-one (31) healthy female SWISS Nude (Crl:NU(Ico)-Foxn1nu) mice, 6-8 weeks old at reception, were obtained from Charles River. The injection volume was 100 μl.
Tumors were induced by subcutaneous injection of 2×10^7 NCI-H69 cells in 200 μL of RPMI 1640 into the right flank of 31 female animals in the axis of the heart. NCI-H69 tumor cell implantation was performed 24 to 72 hours after a whole-body irradiation with a gamma-source (2 Gy, 60 Co, BioMep, France). The day of tumor induction is considered as D0.
All imaging experiments were performed on a 4.7T horizontal magnet (PharmaS-can, Bruker Biospin GmbH, Germany) equipped with an actively shielded gradient system. All the MR images were acquired under ParaVision (PV5.1, Bruker Biospin).

DOTAGA-LYS-(PEG4-CW800)2 [component 5]
higher: Radioactivity in blood (comparison between components) (111In label, FIG. 4a,b) | Remaining radioactivity in whole body after 3 h (3 h, comparison between components) | Remaining radioactivity in whole body after 24 h (24 h, comparison between components)
